Measured affinities in a library of Ab-95 light chain variants

Values reported by Engelhart et al. 2022, doi:10.1038/s41597-022-01779-4 (FLAb copy).

Antigen: PDVDLGDISGINAS, a 14-residue peptide of the SARS-CoV-2 spike HR2 region.

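The starting antibody came from a phage panning campaign against this peptide. AAYL52 was designed without a model: most single CDR substitutions and a random sample of double and triple ones. Affinity was read by AlphaSeq, a pooled yeast mating assay with surface-displayed partners. After mating in shaken culture at 30 °C for 16 h, diploids were selected and their barcode pairs sequenced. Each replicate has its own calibration line, from reference interactions of the BCL2 family. Each pool was mated in three replicate cultures.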

Each scFv is VH, a (GGGGS)3 linker, VL, as in the parent Ab-95, and differs from it in the CDRs of the light chain only.
VH: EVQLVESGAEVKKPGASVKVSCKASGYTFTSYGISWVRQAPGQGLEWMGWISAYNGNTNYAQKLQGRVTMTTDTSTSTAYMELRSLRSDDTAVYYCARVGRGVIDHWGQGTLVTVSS
VL: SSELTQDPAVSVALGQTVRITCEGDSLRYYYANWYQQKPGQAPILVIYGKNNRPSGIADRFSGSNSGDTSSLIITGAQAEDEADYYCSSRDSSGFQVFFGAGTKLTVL

Variants are written as CDR1, CDR2 and CDR3 of the light chain (limits as in the source). Parent: EGDSLRYYYAN, GKNNRPS, SSRDSSGFQVF. This list gathers variants with a substitution at R90 (VL, numbered from residue 1). Each Kd is an estimate from the mating assay, the geometric mean of the replicates in which the pair was seen; lower is stronger. An entry "nd" has no value in the source: the pair was not observed among the diploids in any replicate. This suggests poor binding but is not conclusive. Nonspecific signal, from three strains lacking the peptide, appeared in 28% of pairings of library AAYL52, centred on 8.2 µM (5% of these signals below 800 nM); values are not corrected for it.

CDR-L1	CDR-L2	CDR-L3	apparent Kd	seen in
EGDSLRYYYAH	GKNNRPS	SSFDSSWFQVF	5.6 µM	1/3
EGDSLRYYYAN	GKNNRPS	SSFDSSGFIGF	52 µM	1/3
EGDSLRYYYAN	GKNNRPS	SSEDSSGFHVD	790 nM	3/3
PGDSLRVYYAN	GKNNRPS	SSTDSSGFQVF	14 µM	2/3
EGDSLRYYYAN	GKNNRPS	SSHDSSGFQVI	320 nM	3/3
EGVSLRYYYAN	GKNNRVS	SSHDSSGFQVF	410 nM	3/3
EGDSLRYWYAN	GQNNRPS	SSSDSSGFQVF	nd	0/3
EGDSLRWYYAN	GKNNRPS	SSADSSGFQVF	1.3 µM	2/3
EGDFLRYIYAN	GKNNRPS	SSWDSSGFQVF	5.4 µM	3/3
EGDSLRYYYAN	GKNNRPS	YSDDSSGFQVH	nd	0/3
EGDSLRYYYAN	HKNNRPS	SSLDSSDFQVF	22 µM	3/3
EGDSLQYYHAN	GKNNRPS	SSIDSSGFQVF	nd	0/3
EGDSLRYYYAT	GKNNCPS	SSSDSSGFQVF	26 µM	2/3
EGDSLRYYYAN	GLNNRPG	SSYDSSGFQVF	1.4 µM	3/3
EGDSLRHYYAN	GKNNRDS	SSEDSSGFQVF	nd	0/3
EGDSKSYYYAN	GKNNRPS	SSHDSSGFQVF	1.7 µM	3/3
EADSYRYYYAN	GKNNRPS	SSIDSSGFQVF	8.2 µM	2/3
EGDSLRYYYAN	GKNNRPS	SSGFSSGFQVF	18 µM	2/3
EGDSLEYYYAN	GKINRPS	SSADSSGFQVF	nd	0/3
PGDSLRYAYAN	GKNNRPS	SSFDSSGFQVF	nd	0/3
EGDSLRYYYAN	GKNNRPS	SSMDESGFEVF	5.7 µM	1/3
EGDSLRYYYAN	GKNLRPS	SSADSSGGQVF	nd	0/3
EGDSLRYYYAN	GWNNRPS	SSKDSSGFPVF	1.9 µM	1/3
EGDSLRYYYAN	GKNNRPS	SSPDSRGNQVF	nd	0/3
EGASLRYYYAN	GYNNRPS	SSHDSSGFQVF	nd	0/3
VGDSLRYYYAN	GKNNRPS	SSTDSSGFQVI	2.3 µM	3/3
EGDSLRYYYAN	GKNNRPS	SSKDSSGCQVF	nd	0/3
EGDYLRYYYAN	GKNNRPS	SSQDSSGFIVF	6.7 µM	2/3
EGDSLRYYYAN	GKNNRPS	SSEDSSGGQVF	2.7 µM	3/3
EGDSLRYYYAN	MKNRRPS	SSNDSSGFQVF	nd	0/3
EGDSLRYYYAY	GKNNRPS	SSFRSSGFQVF	nd	0/3
EGDSLVYYYAN	GKNNRPS	SSYDSSMFQVF	4.9 µM	1/3
EGDSLRYYLAN	GKNNRPS	SSVDSSGAQVF	nd	0/3
EGDMLRLYYAN	GKNNRPS	SSTDSSGFQVF	12 µM	1/3
EGDSLRYRYAN	GKYNRPS	SSDDSSGFQVF	5.7 µM	3/3
EGDSLRYYYAN	GKNNRPS	SSADSSGFQVF	36 nM	3/3
EGDSLRYYYAN	GKNNRPS	SSPDSSGFQVF	220 nM	3/3
EGDSLRYDYAN	GKNNRPS	SSSDSSIFQVF	17 µM	2/3
EGDSLRYHYAN	GKNNRPS	SSQDSSGWQVF	330 nM	3/3
EHDSLRYYYAN	GKNNRPS	SSLDSSDFQVF	2.0 µM	1/3
EGDSLRYYYDN	GKNNRPS	SSSDSSGFQVF	12 µM	2/3
EGDSLRYYWAN	GKNNRPS	SSPDSSKFQVF	nd	0/3
EGDLLRYYYAN	SKNNRPS	SSGDSSGFQVF	3.2 µM	3/3
EGDSLHYYYAN	GKNNRPS	SSKKSSGFQVF	2.5 µM	3/3
EGDSLRYYYAN	GKNNRPS	VSVDSSGFQMF	200 nM	3/3
EGDSLRYYYAN	GKNNRVN	SSKDSSGFQVF	21 µM	3/3
EGDSLRYYYAN	GKNNRMF	SSIDSSGFQVF	4.6 µM	2/3
EGDMLRYYYAN	GKNNRPS	SVNDSSGFQVF	8.1 µM	1/3
EGDSLRYYYLN	GKNNRAS	SSQDSSGFQVF	1.9 µM	1/3
EGDSLCYYYAN	GKNNRPS	SSQDSSNFQVF	2.9 µM	3/3
EGDSLRYYYAN	GINNRPS	SSYDSSGFQVF	95 µM	2/3
EMDSLRYYYAN	GKNNRPS	ASHDSSGFQVF	38 µM	2/3
EGDSLRYIYKN	GKNNRPS	SSEDSSGFQVF	nd	0/3
EGDSLRYYYAN	GENNRPS	SSIDSSGFQYF	5.2 µM	1/3
EGDSLLYYYAN	GKNNRPS	SSCDSSQFQVF	1.4 µM	3/3
EGDSLRYMYAN	GKNNRSS	SSLDSSGFQVF	220 nM	3/3
EGDSLRYKYAN	GKNNRPS	SSADSSGFFVF	nd	0/3
EGDSLRYYWAN	GKNNRPS	SGIDSSGFQVF	510 nM	3/3
EGDSLRYYYAN	GKNNRPS	SSLDSSGFTVF	6.8 µM	3/3
EGDSLRYYYAN	GKNNRPS	SSCDSWGFRVF	1.5 µM	3/3
EGDSLRYYYAP	GKNNRPS	SSTDSSGFQVF	13 µM	2/3
EGDSLRYYYAN	GKNNRPS	SSEYSLGFQVF	380 nM	3/3
EGDSLRYYYAN	GKNNRPS	FSEDGSGFQVF	12 µM	1/3
EGNSLRYYYAN	GDNNRPS	SSSDSSGFQVF	12 µM	3/3
EGDSLRYYYYN	GKNNRPS	PSCDSSGFQVF	5.5 µM	1/3
EGDSLWYYYAN	GKNNRPS	SSYDISGFQVF	4.6 µM	2/3

Again, the first 6 entries without any signal:

CDR-L1	CDR-L2	CDR-L3	apparent Kd	seen in
EGDSLRYWYAN	GQNNRPS	SSSDSSGFQVF	nd	0/3
EGDSLRYYYAN	GKNNRPS	YSDDSSGFQVH	nd	0/3
EGDSLQYYHAN	GKNNRPS	SSIDSSGFQVF	nd	0/3
EGDSLRHYYAN	GKNNRDS	SSEDSSGFQVF	nd	0/3
EGDSLEYYYAN	GKINRPS	SSADSSGFQVF	nd	0/3
PGDSLRYAYAN	GKNNRPS	SSFDSSGFQVF	nd	0/3